Settings: male, Wistar (HsdBrlHan WIST), rat, in vivo

Which results are given for `CN1CC[C@]23c4c5ccc(O)c4O[C@H]2[C@@H](O)C=C[C@H]3[C@H]1C5` [morphine]?
mean, open field activity monitor (test for sedation): 814.2; mean, open field activity monitoring (sedation test): 814.20

From US20110129508A1 (priority 2008, published 2011)
